US20190262330A1, “Method of Treating Hepatocellular Carcinoma Using N-(4-(6,7-dimethoxyquinolin-4-yloxy)phenyl)-N′-(4-fluorophenyl)cyclopropane-1,1-dicarboxamide, (2S)-hydroxybutanedioate” (Exelixis, Inc., priority 2017, published 2019)

Sequences of proteins named here, by UniProt entry; tags and fusion partners are left off. Residues count along the entry.
UniProt Q06418, 41-890: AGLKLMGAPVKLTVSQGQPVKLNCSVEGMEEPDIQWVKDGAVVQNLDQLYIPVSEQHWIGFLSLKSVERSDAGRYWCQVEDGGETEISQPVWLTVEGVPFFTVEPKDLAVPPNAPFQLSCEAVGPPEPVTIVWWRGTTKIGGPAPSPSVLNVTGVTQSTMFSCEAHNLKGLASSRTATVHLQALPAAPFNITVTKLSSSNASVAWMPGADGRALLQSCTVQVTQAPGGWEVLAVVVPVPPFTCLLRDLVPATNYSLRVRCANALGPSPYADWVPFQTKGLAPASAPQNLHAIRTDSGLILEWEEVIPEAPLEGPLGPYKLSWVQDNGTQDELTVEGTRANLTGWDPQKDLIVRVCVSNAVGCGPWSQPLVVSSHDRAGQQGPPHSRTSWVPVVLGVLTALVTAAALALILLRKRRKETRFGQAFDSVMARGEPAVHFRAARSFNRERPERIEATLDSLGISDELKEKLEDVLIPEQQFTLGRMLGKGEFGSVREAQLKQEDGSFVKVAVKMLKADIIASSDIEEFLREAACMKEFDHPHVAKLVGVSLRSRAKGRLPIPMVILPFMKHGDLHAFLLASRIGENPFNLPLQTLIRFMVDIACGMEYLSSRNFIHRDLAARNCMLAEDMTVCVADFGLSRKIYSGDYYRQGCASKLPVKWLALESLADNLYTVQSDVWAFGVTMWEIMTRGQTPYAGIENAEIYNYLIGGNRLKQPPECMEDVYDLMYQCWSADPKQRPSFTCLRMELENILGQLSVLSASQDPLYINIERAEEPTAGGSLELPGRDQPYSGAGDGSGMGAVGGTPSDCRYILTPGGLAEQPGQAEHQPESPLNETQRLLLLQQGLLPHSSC

Experiments:
TYRO3 = TYRO3 (Homo sapiens, UniProt Q06418); settings: in vitro
[1] = test system: pregnant rats and rabbits

COc1cc2nccc(Oc3ccc(NC(=O)C4(C(=O)Nc5ccc(F)cc5)CC4)cc3)c2cc1OC [cabozantinib]
Tyrosine kinase activity of TYRO3 (TYRO3): inhibits
Embryofetal findings after administration during organogenesis ([1]; in vivo): embryolethality at exposures below those occurring clinically at the recommended dose
Embryofetal findings after administration during organogenesis ([1]; pregnant animals): embryofetal lethality and structural anomalies at exposures that were below those occurring clinically at the recommended dose

Where two headings read alike, the source gives them in different places.
